Molecular target: androgen receptor (Homo sapiens, UniProt P10275)
Assay: Yeast two-hybrid screening of unbiased X15 peptide library, ligand induced β-galactosidase activity (FIG. 3, Table 503)
Format: cell-based
Parameters: expressed in transfected cells; host or cells: Saccharomyces cerevisiae PJ69-4α
Details: untitled table before Table 503; values match DHT / No Lig of Table 503

Sequences of proteins named here, by UniProt entry; tags and fusion partners are left off.
UniProt P10275, whole entry, species assumed: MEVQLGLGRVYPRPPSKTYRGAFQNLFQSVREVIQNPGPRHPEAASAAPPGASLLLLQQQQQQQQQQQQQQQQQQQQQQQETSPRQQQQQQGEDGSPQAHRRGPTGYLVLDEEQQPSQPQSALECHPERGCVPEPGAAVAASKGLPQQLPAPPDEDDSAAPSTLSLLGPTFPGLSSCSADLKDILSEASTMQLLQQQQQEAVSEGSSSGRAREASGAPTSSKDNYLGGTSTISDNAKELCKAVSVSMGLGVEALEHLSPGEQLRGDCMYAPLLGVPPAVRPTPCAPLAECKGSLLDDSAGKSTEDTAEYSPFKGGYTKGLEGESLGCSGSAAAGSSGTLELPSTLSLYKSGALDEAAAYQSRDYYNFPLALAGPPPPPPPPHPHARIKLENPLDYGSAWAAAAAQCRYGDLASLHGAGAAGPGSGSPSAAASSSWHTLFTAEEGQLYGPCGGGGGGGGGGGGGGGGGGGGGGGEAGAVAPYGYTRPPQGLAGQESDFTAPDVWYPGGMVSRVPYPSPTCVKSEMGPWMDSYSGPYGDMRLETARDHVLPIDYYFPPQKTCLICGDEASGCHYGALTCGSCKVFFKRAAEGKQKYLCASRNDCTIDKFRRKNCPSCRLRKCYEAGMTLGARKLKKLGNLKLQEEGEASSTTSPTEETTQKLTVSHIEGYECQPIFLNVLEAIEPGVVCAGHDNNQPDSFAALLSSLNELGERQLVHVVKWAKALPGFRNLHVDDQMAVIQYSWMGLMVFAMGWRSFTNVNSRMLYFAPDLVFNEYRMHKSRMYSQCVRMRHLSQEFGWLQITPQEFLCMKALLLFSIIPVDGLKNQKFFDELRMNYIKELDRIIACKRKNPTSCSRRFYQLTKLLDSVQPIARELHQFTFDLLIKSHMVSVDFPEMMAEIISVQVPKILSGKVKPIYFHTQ

Sequence EFRFPFHEMVREWESMGLERVRYAEP [M4D1] has a Fold induction greater than 2.

Source: patent US20030224390A1, “Method of identifying conformation-sensitive binding peptides and uses thereof” (Karo Bio AB, priority 2000, published 2003)
